# According to patent US20230365492A1, “LITHIUM ORGANIC ACID-AMINO ACID SALT, AND CRYSTAL FORM, COMPOSITION AND APPLICATION THEREOF” (ANYU BIOTECHNOLOGY (HANGZHOU) CO., LTD., priority 2020, published 2023):
# Key:
# [1] = system: HEK293 cells; details: 5 mM, 4 hours, confocal microscope
# [2] = system: Kunming mice
# [3] = system: Kunming mice; experiment: Oral acute toxicity (limited test method / Horn's method); details: mouse, in vivo
# [4] = male SD rats, gavage 0.08 mmol lithium/rat, 0-24 hours, compared with lithium carbonate
substance,measurement,setting,value
lithium isobutyrate-L-proline salt,change in morphology of HEK293 cells,[1],no obvious change in morphology
same,gross anatomy findings,"[2]; oral acute toxicity, after 14 days or death",no abnormalities are found after the gross anatomy
same,LD50 value,"[2]; oral, single administration, 14 days observation","greater than 5,000 mg/kg"
same,death of experimental animals,[3],not dead within 14 days
same,level of lithium in the brain,[4]; brain tissues,no obvious difference in the level of lithium in the brain
same,blood lithium level,[4]; plasma,higher blood lithium level
